# From PubChem BioAssay AID2445 (The Scripps Research Institute Molecular Screening Center, 2010)
# The chains behind the UniProt entries cited, without tags or fusion partners. Where a name states a change or a piece, a line headed by the entry shows the natural chain unless it says otherwise.
# UniProt P30559: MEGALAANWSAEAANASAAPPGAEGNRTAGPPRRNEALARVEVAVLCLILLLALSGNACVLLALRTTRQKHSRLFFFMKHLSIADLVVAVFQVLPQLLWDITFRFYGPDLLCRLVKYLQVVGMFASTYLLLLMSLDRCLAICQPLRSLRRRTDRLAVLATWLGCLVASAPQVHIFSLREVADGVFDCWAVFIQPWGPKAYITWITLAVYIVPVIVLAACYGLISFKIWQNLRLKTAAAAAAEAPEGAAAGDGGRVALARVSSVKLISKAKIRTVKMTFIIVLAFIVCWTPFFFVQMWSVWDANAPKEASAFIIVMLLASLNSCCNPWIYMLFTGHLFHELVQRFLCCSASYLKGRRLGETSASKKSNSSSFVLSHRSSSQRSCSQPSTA
# The list shows a part of the results, in another mix than the full data. Activity calls are given as the source filed them.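 The calls were made as follows: active = activation above that plate's cutoff, the mean activation of tested compounds plus 3 SD (cut at about 6.6% in these data, passing the limit was not always enough); inactive = the rest.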
# Biological target: Oxytocin receptor (Homo sapiens) (UniProt P30559)
# Experiment: human OXTR potentiators, primary screen, fluorescence, CHO-OTR cells, Fluo-8 calcium (AID 2445);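 also: 100% uses oxytocin at 75 nM as the full agonist control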
# Settings: Fluo-8 calcium fluorescence, potentiator mode, at 3 µM, stronger effect = higher value, 0% = oxytocin EC15, 100% = EC100
row,SMILES,activation
1,CN(C)C(=O)OCCc1n(C)cc[n+]1C,inactive: -3.39%
2,CC(C)=N/N=C(\N)N[N+](=O)[O-],inactive: 0.78%
3,CC1CCN(C(=O)Oc2c(Cl)cc(Cl)c3cccnc23)CC1,inactive: -7.77%
4,C[N+]1=C2C=CC=CC=C2SC12C([N+](=O)[O-])=CC([N+](=O)[O-])=C[C-]2[N+](=O)[O-] (centres undefined),inactive: -10.6%
5,Nc1ccc([As](=O)(O)c2ccc(N)cc2)cc1,inactive: -19.6%
6,CCN(/C(=N/P(=O)(N1CCOCC1)N1CCOCC1)N1CCOCC1)c1ccc(OC)cc1,inactive: 6.43%
7,CC(=O)N1C2C3N(C(C)=O)C1C1N(C(C)=O)C(C(N1C(C)=O)N3C(C)=O)N2C(C)=O,inactive: -3.39%
8,O=[N+]([O-])c1cccc2n[nH]nc12,inactive: -2.92%
9,O=[N+]([O-])c1cc([N+](=O)[O-])c(CCNc2ccccc2)c([N+](=O)[O-])c1,inactive: -14.6%
10,CCc1nc2c(n1)c1c(non1O)c1c2no[n+]1[O-],inactive: -8.28%
11,Cc1ccc(NP(=O)(Oc2ccccc2)Oc2ccccc2)nc1,inactive: -5.37%
12,COc1ccc(C2=NCC(CBr)S2)cc1 (centres undefined),inactive: 6.6%
13,O=[N+]([O-])c1cccc(NC2=NCC(CBr)S2)c1 (centres undefined),inactive: -4.87%
14,CC(C)(C)C(=O)NC(Sc1ccncn1)C(Cl)(Cl)Cl (centres undefined),inactive: 0.87%
15,O=[N+]([O-])c1ncn(CCn2ncnc2[N+](=O)[O-])n1,inactive: -5.97%
16,O=C(Nc1cc([As](=O)(O)O)ccc1O)c1ccccc1,inactive: -12.9%
17,CCN(N=Nc1nonc1N)c1nonc1N,inactive: 1.26%
18,O=[N+]([O-])c1cc([N+](=O)[O-])c(CCN2CCOCC2)c([N+](=O)[O-])c1,inactive: -8.02%
19,Cc1ccc(NP(=O)(Oc2ccccc2F)Oc2ccccc2F)nc1,inactive: 0.25%
20,CCOP(=O)(Nc1ccccc1)OCC,inactive: 4.86%
21,Cc1cc(SC(NC(=O)c2ccc(F)cc2)C(Cl)(Cl)Cl)ncn1 (centres undefined),inactive: -5.2%
22,O=C(O)c1ccccc1[As](=O)(O)O,inactive: -1.91%

row,SMILES,activation
1,CC(=O)Nc1ccc([As](=O)(O)O)cc1,inactive: -5.3%
2,O=P(Nc1nc2ccc(Cl)cc2s1)(c1ccccc1)c1ccccc1,inactive: -13.6%
3,CC(C)CC(=O)NC(Sc1ccc(Cl)cc1)C(Cl)(Cl)Cl (centres undefined),inactive: -3.48%
4,Nc1cc(N)c2nonc2c1[N+](=O)[O-],inactive: 4.14%
5,Cc1c2non([O-])c-2c(C)[n+](=O)[n+]1[O-],inactive: -5.24%
6,O=C(NC(Sc1ccncn1)C(Cl)(Cl)Cl)c1ccccc1 (centres undefined),inactive: -2.4%
7,Oc1ccccc1CNc1ccccn1,inactive: -3.54%
8,Cc1ccc(OP(=O)(Nc2nccs2)Oc2ccc(C)cc2)cc1,inactive: -8.03%
9,COc1ccccc1OP(=O)(Nc1ccc(C)cn1)Oc1ccccc1OC,inactive: -3.99%
10,Clc1ccc(Cl)c(NC2=NCC(CBr)S2)c1 (centres undefined),inactive: 4.4%
11,CN1CCCC(OC(=O)C(c2ccccc2)c2ccccc2)C1 (centres undefined),inactive: -3.71%
12,NC(=O)c1cc([N+](=O)[O-])cc([N+](=O)[O-])c1N,inactive: -8.45%
13,Cc1ccc(N/C(=N/P(=O)(N2CCOCC2)N2CCOCC2)N2CCOCC2)cc1,inactive: -8.34%
14,CC(=O)Nc1ccc(Oc2c([N+](=O)[O-])cc([N+](=O)[O-])cc2[N+](=O)[O-])cc1,inactive: -15.3%
15,CC(=O)Nc1ccc([As](=O)(O)O)c(O)c1,inactive: -12%
16,CC(=O)c1ccc(N2CC2c2ccncc2)cc1 (centres undefined),inactive: -2.83%
17,C[C@@H]1C=CCP(=O)(Oc2ccccc2)O1 (some centres undefined),inactive: -7.64%
18,C[C@H]1OP(=O)(Oc2ccccc2)C[C@@H]2O[C@@H]21 (some centres undefined),inactive: -2.61%
19,Cc1ccccc1CN(C)C(=O)COC(=O)C(O)(c1ccccc1)c1ccccc1,inactive: -9.26%
20,CC(C)(C)C(=O)NC(Sc1ccccc1)C(Cl)(Cl)Cl (centres undefined),inactive: 4.54%
21,CCOc1ccc(C2=NCC(CBr)S2)cc1 (centres undefined),inactive: -10.3%
22,O=P1(Nc2nc3ccc(Cl)cc3s2)COc2ccccc2O1 (centres undefined),inactive: -11%

row,SMILES,activation
1,CN(C)C(=O)Oc1noc2ccccc12,inactive: 2.83%
2,Cc1ccccc1OP(=O)(Nc1ccccn1)Oc1ccccc1C,inactive: -10.8%
3,CC(NC(=O)COC(=O)C(O)(c1ccccc1)c1ccccc1)c1ccccc1 (centres undefined),inactive: -10.5%
4,CC(=O)NC(SC(=S)N(CC(C)C)CC(C)C)C(Cl)(Cl)Cl (centres undefined),inactive: -7.77%
5,Cc1ccc(OP(=O)(Nc2ccccn2)Oc2ccc(C)cc2)cc1,inactive: -10.3%
6,COC(=O)c1cc2c(s1)N=C(c1ccccc1)N(C)P2(=O)N1CCOCC1 (centres undefined),inactive: -23%
7,CCC(=O)N1C2C3N(C(=O)CC)C1C1N(C(=O)CC)C(C(N1C(=O)CC)N3C(=O)CC)N2C(=O)CC,inactive: -6.17%
8,O=C(OC1CN2CCC1CC2)c1ccccc1 (centres undefined),inactive: -11.4%
9,O=C(NC1CCS(=O)(=O)C1)NP(=S)(Oc1ccccc1)Oc1ccccc1 (centres undefined),inactive: -13.6%
10,CCNC(=S)/N=C(\N)N[N+](=O)[O-],inactive: -1.39%
11,Cc1ccc(NP(=O)(Oc2cccc(C)c2)Oc2cccc(C)c2)nc1,inactive: -13.8%
12,CCOC(=O)NC(Sc1ccccc1)C(Cl)(Cl)Cl (centres undefined),inactive: -4.62%
13,c1ccc(-c2nn[nH]n2)c(-c2nn[nH]n2)c1,inactive: -6.3%
14,Nc1ccc([As](=O)(O)c2ccc([N+](=O)[O-])cc2)cc1,inactive: -2.69%
15,C(Cc1nn[nH]n1)Cc1nn[nH]n1,inactive: 0.08%
16,O=C(OC1CN2CCC1CC2)c1cccc(Cl)c1 (centres undefined),inactive: 4.32%
17,CC(=O)NC(SC(=S)N(C)C)C(Cl)(Cl)Cl (centres undefined),inactive: -0.05%
18,O=[N+]([O-])c1ncn(CCn2cnc([N+](=O)[O-])n2)n1,inactive: -9%
19,O=[N+]([O-])c1ccc(O)c(/C=N/Nc2ccc([N+](=O)[O-])cc2[N+](=O)[O-])c1,inactive: -15%
20,O=[As](O)(c1ccccc1)c1ccc(O)cc1,inactive: -7.7%
